Like-named read-outs stand apart in the source and are kept apart here.
Experiments:
[1] = target: Human recombinant PDE2A (hPDE2A) (Homo sapiens, UniProt O00408); assay: In vitro assay PDE2A (SPA, 3H-cGMP hydrolysis)
[2] = target: Human recombinant PDE3A (hPDE3A) (Homo sapiens, UniProt Q14432); assay: In vitro assay PDE3A (SPA, 3H-cAMP hydrolysis)
[3] = target: Human recombinant PDE10A (hPDE10A) (Homo sapiens, UniProt Q9Y233); assay: In vitro assay PDE10A, human clone (SPA, 3H-cAMP hydrolysis); assay type: biochemical; conditions: for hPDE10A2 Emax / hPDE10A2 pIC50: human clone (h), default; for hPDE10A2 or rPDE10A2 Emax / hPDE10A2 or rPDE10A2 pIC50: human clone by default (no (r) mark)
[4] = target: Rat recombinant PDE10A (rPDE10A2) (Rattus norvegicus, UniProt Q9QYJ6); assay: In vitro assay PDE10A, rat clone (SPA, 3H-cAMP hydrolysis)
PDE2A = PDE2A (Rattus norvegicus, UniProt Q01062); assay: PDE2 occupancy by test compounds, ex-vivo autoradiography with [3H]B-17a; conditions: percentage receptor occupancy, striatum
[5] = human recombinant PDE2A, 10 μM cGMP substrate

The chains behind the UniProt entries cited, without tags or fusion partners. Residues count along the entry.
UniProt O00408, whole entry: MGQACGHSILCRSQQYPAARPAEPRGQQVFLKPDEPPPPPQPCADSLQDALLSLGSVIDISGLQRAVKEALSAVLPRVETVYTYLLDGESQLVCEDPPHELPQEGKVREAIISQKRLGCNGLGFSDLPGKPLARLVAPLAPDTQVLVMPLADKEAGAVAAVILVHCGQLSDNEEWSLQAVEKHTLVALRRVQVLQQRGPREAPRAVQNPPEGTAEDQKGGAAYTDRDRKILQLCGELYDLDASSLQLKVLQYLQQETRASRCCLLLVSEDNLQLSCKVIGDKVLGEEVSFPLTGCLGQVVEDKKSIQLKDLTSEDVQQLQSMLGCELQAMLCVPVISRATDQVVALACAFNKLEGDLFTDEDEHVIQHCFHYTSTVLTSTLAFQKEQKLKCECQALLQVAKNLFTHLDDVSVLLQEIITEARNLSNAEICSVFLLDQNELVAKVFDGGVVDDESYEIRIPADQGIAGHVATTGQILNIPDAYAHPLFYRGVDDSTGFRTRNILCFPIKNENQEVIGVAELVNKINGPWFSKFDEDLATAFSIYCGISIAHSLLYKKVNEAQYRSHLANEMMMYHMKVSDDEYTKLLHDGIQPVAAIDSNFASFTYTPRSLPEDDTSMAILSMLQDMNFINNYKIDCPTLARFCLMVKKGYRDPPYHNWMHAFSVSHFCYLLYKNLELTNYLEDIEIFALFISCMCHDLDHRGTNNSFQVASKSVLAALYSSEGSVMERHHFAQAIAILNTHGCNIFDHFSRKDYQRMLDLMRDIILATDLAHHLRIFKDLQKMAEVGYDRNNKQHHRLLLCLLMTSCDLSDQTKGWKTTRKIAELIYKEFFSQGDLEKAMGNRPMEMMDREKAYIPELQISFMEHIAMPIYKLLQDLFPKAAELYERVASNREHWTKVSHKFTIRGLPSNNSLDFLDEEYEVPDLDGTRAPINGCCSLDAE
UniProt Q14432, whole entry: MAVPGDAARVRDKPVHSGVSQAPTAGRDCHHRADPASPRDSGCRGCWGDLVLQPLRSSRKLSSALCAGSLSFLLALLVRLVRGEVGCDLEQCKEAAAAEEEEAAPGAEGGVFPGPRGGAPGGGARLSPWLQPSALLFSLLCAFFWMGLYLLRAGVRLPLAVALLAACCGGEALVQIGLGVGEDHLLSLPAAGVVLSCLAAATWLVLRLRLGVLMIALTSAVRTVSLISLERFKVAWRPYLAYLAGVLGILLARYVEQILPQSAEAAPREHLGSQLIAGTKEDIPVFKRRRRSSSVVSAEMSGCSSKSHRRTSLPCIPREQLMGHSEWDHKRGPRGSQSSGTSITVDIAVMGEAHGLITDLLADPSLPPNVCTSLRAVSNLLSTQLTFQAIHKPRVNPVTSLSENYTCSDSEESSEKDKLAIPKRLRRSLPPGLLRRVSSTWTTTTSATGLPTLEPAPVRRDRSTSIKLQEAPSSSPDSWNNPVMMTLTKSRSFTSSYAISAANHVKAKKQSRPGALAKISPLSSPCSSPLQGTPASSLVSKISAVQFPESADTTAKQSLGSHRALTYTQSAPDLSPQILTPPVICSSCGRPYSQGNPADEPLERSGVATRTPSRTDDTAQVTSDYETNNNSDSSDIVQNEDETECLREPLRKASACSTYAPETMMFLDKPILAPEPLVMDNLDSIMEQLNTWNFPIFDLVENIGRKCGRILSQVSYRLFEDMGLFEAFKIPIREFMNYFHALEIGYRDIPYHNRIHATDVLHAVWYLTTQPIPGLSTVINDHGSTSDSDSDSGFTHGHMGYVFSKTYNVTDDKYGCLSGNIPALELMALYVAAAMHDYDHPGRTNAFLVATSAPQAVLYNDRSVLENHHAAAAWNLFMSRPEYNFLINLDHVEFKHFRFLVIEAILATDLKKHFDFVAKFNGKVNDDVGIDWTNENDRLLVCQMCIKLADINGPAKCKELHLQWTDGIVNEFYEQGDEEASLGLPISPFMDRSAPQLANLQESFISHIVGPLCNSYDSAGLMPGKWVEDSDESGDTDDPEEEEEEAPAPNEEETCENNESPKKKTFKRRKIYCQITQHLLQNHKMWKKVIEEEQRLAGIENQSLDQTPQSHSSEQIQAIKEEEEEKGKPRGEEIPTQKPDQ
UniProt Q9Y233, 267-1055: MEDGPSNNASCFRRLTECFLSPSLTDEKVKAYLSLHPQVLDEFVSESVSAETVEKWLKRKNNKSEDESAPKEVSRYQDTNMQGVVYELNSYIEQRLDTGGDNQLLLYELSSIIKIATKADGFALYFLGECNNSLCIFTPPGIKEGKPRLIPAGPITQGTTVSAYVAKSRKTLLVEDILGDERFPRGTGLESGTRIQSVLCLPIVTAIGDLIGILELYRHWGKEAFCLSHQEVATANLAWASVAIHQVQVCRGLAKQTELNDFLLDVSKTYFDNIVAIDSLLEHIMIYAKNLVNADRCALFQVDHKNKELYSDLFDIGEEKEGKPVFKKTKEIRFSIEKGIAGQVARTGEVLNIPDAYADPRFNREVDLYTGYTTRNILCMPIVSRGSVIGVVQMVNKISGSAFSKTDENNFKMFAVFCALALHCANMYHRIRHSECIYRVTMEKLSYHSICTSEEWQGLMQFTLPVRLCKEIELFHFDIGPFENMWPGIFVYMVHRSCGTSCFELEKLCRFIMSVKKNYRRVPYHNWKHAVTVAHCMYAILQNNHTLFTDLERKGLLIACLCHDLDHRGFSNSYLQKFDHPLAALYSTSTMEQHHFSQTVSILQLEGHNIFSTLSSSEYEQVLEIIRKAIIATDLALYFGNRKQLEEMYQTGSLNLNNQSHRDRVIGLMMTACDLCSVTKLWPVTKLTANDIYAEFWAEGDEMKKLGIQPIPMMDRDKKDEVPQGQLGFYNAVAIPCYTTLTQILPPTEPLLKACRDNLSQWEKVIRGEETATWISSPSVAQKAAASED
UniProt Q9QYJ6, whole entry: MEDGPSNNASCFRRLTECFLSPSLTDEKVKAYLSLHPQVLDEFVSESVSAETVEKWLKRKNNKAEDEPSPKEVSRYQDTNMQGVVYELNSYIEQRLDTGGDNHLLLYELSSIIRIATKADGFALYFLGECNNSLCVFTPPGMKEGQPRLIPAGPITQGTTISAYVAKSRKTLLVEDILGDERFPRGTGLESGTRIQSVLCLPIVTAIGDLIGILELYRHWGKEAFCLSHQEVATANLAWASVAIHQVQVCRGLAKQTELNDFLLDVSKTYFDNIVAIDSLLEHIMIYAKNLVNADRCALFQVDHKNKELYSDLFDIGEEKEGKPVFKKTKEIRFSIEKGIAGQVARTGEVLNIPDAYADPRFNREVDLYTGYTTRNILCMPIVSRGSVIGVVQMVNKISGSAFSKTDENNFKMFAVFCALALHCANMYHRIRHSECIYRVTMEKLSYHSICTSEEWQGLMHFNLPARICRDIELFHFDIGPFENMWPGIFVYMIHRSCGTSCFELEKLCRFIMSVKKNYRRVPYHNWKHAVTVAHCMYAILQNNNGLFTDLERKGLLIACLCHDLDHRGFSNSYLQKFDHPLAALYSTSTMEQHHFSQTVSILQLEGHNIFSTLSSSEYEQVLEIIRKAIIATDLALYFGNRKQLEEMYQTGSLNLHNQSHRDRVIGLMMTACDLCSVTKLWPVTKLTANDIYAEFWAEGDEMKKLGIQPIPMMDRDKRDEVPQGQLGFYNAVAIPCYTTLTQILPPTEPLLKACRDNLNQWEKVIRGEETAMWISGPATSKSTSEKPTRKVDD
UniProt Q01062, whole entry: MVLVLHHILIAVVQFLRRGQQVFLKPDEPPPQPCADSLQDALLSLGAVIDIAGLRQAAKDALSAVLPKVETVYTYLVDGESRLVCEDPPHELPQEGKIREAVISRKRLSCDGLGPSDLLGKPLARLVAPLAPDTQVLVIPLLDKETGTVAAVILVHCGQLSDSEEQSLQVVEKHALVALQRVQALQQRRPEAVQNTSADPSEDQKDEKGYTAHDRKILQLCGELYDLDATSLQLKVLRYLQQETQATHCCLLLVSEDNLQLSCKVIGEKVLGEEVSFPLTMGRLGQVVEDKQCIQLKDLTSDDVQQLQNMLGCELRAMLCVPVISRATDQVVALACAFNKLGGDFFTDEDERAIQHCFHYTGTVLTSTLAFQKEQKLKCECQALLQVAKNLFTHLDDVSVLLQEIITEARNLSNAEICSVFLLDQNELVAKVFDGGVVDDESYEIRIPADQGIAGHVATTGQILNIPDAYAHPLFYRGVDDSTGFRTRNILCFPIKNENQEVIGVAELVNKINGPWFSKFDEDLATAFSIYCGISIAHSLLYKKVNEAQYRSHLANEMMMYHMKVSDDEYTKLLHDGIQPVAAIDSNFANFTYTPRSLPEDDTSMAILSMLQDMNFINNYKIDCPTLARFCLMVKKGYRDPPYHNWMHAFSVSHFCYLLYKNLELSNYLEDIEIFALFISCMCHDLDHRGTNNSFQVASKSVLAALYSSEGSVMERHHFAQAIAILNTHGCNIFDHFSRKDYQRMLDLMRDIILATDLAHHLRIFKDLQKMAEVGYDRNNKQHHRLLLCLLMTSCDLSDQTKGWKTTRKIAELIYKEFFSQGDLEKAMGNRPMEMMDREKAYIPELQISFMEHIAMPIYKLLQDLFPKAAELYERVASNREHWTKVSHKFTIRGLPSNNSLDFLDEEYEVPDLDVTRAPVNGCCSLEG

| SMILES | hPDE2A Emax [1] | hPDE2A pIC50 [1] | hPDE2A Emax ([1]; human recombinant PDE2A) | hPDE2A pIC50 [1, 5] | hPDE3B Emax [2] | hPDE3B Emax ([2]; head prints hPDE3B) | hPDE10A2 Emax [3] | hPDE10A2 pIC50 [3] | rPDE10A2 Emax ([4]; rat clone (r)) | rPDE10A2 pIC50 ([4]; rat clone (r)) | rPDE10A2 Emax ([4]; rat clone, indicated as (r)) | rPDE10A2 pIC50 ([4]; rat clone, indicated as (r)) | hPDE10A2 or rPDE10A2 Emax [3] | hPDE10A2 or rPDE10A2 pIC50 [3] | PDE2 Occupancy at 10 mg/kg (PDE2A; route PO (oral)) | PDE2 Occupancy at 10 mg/kg (PDE2A; route SC (subcutaneous)) |
| --- | --- | --- | --- | --- | --- | --- | --- | --- | --- | --- | --- | --- | --- | --- | --- | --- |
| CC(=O)N1CCc2cc(C(=O)N3CCCC(C)(c4ccnc5ncnn45)C3)ccc21 (centres unmarked) | 92% | 7.27 | 92% | 7.27 | 62% | 62% | 62 (h) | 5.23 (h) | 21 (r) | 5.32 (r) | 21 (r) | 5.32 (r) |  |  |  |  |
| COc1c(C(=O)N2CC[C@@H](C)[C@H](c3cc(C(F)F)nc4ncnn34)C2)cc(C)nc1C | 98% | 8.62 |  |  | 79% |  |  |  |  |  |  |  | 93% | 6.26 | 23% |  |
| Cc1cc([C@H]2CC[C@H]3CC[C@@H]2N3C(=O)c2ccc3ncsc3c2)n2ncnc2n1 | 100% | 9.29 | 100% | 9.29 | 55% | 55% | 98% | 7.32 |  |  |  |  |  |  |  | 27% |
| CC(=O)N1CCc2cc(C(=O)N3CCCC(C)(c4cc(C(F)F)nc5ncnn45)C3)ccc21 (centres unmarked) | 88% | 6.79 | 88% | 6.79 | 48% | 48% |  |  | 13 (r) | <5 (r) | 13 (r) | <5 (r) |  |  |  |  |
| C[C@H]1CCN(C(=O)c2ccc3c(ccn3CCF)c2)C[C@@H]1c1cc(C(F)F)nc2ncnn12 | 82% | 6.58 | 82% | 6.58 | 45% | 45% | 63% | 5.13 |  |  |  |  | 63% | 5.13 |  |  |

— patent US10947242B2, “[1,2,4]triazolo[1,5and#8208;A]pyrimidine compounds as PDE2 inhibitors” (Janssen Pharmaceutica NV, priority 2016, dated 2021)
